From patent US20040138234A1, “Histamine receptor antagonists” (Pfizer Inc, priority 2001, published 2004)

Chains of the proteins cited; added tags and fusions are not shown. A line that says so, or that is headed by a name, gives the form on record, which may keep a tag or linker.
UniProt Q9Y5N1, with tags, fused parts or gaps DEL228-354: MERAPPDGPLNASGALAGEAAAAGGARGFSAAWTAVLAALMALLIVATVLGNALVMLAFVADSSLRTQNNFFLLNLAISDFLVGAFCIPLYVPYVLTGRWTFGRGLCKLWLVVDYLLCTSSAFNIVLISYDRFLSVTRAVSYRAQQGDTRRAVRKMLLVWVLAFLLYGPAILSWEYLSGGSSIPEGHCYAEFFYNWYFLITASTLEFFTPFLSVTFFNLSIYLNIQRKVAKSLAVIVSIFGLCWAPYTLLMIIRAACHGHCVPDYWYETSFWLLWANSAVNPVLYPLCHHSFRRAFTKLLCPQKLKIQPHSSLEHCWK

Target: histamine H3 receptor (Homo sapiens, UniProt Q9Y5N1)
Experiment: Histamine H3 receptor radioligand binding, human brain tissue
Description: The cDNA for the human histamine H3 and H4 receptor can be expressed in a suitable cell line such as HEK293 or CHO. In addition membranes can be prepared from tissues or cells which naturally express either the histamine H3 and/or H4 receptor. Affinity can be assessed at either receptor by assessing the ability of ligands to inhibit the binding of a suitable radioactively labelled ligand to membranes containing either the histamine H3 or H4 receptor. The potency of compounds is compared by calculating their pKI values.

NC(=NCc1ccc(Cl)cc1)SCCCc1cnc[nH]1 [Clobenpropit]
Ki: 2.34 nM
